Results as given in paper PMC8586700 (Frontiers in Pharmacology, 2021).

Legend:
[1] = Stability experiment in plasma and brain homogenate samples; format: in vitro ADME, SD rats
Procedure: Three blank samples of plasma and brain homogenate of SD rats were added into the mixed standard solution. The stability experiment included placing at room temperature for 12 h, repeatedly freeze-thaw for three times and frozen for 15 days.

[2] = Repeated administration, drug concentrations of plasma and brain; format: in vivo, SD rats; details: Group III: CUR and ILE
Procedure: Plasma or brain homogenate of SD rats was taken 50 μL, internal standard solution of 50 μL and protein precipitator of 150 μL were added. After eddy oscillation for 3 min, supernatant was separated by centrifugation.
The concentration of drugs in plasma and brain homogenate after repeated administration was determined according to the same grouping and administration method. The loading dose of 200 mg kg^−1 was given for the first time and half doses for four consecutive days.
Plasma was collected by centrifugation of blood at 3000 RPM for 10min, and stored at -80 °C. Brain tissue of SD rat was dissected, weighed and added with normal saline at a volume of 2 ml g^−1. After homogenating brain tissue for 3 min by a homogenizer at 14,000 RPM, the supernatant was collected after centrifugation at 12,000 RPM for 10 min.

With `O=C(/C=C/c1ccc2c(c1)OCO2)N1CCCCC1` [ILE, Ilepcimide, reference compound] the “Recovery after 12 h placement at room temperature” value ([1]; brain homogenate samples) was “only showed slight decrease”, the “Recoveries after being kept at room temperature for 12 h” value ([1]; plasma samples) was under 90% and the “Mean concentrations±sd, ILE in plasma after multiple doses” value [2] was 2800 ± 300 ng/mL.
